{"source": "patent US20090325202A1", "about": "“Methods for Developing and Assessing Therapeutic Agents” (priority 2006, published 2009)", "tested_on": "EGFR", "assay": "In vivo tumor FNAB Western blot, EGFR phosphorylation (Example 5)", "details": "tumor samples of treated animals compared to control", "data": [{"smiles": "COc1cc2ncnc(Nc3ccc(F)c(Cl)c3)c2cc1OCCCN1CCOCC1", "note": "[gefitinib, Gefitinib]", "values": [{"measurement": "EGFR phosphorylation in vivo", "value": "completely abolished"}]}]}
